Measurements reported in patent US20070009537A1, “Antimicrobial activity of antibodies producing reactive oxygen species” (priority 2002, published 2007).

Test: H2O2 production by UV irradiation of antibody/protein samples (Amplex Red assay)
Type: biochemical
Conditions: member of the immunoglobulin superfamily
Description: Aliquots (10 μL) were removed at timed intervals throughout the assay. H2O2 concentration was determined by the amplex red method. Each data point is reported as the mean±SEM of at least duplicate measurements: • polyclonal (poly) immunoglobulin (Ig) G, human; O poly-IgG, horse; □ poly-IgG, sheep; ∇ monoclonal (m) IgG (WD1-6G6), murine; Δ poly-IgM, human; ⋄ mIgG (92H2), murine; ▪ β-galactosidase (β-gal); ▴ chick ovalbumin (OVA); ▾ α-lactalbumin (α-lact); ♦ bovine serum albumin (BSA).
An aliquot (20 μl) from the protein solution was removed and added into a well of a 96-well microtiter plate (Costar) containing reaction buffer (80 μl). Working solution (100 μl/400 μM Amplex Red reagent 1/2 units/ml horseradish peroxidase) was then added, and the plate was incubated in the dark for 30 min. The fluorescence of the well components was then measured using a CytoFluor Multiwell Plate Reader (Series 4000, PerSeptive Biosystems, Framingham, Mass.; Ex/Em: 530/580 nm). The hydrogen peroxide concentration was determined using a standard curve. All experiments were run in duplicate, and the rate is quoted as the mean of at least two measurements.
The resultant solution was transferred to a glass, screw-cap vial and irradiated with UV light for 30 min. The concentration of H2O2 was determined after 30 min.

β2-microglobulin: member of the immunoglobulin superfamily
generation of H2O2: does not generate H2O2
generation of H2O2 (listed as β2-macroglobulin): does not generate hydrogen peroxide
